Assay [1] addresses sGC α1/β1 heterodimer (Homo sapiens (Human), UniProt Q02108+Q02153). Nature of the assay: Cell-based sGC functional assay (cyclic GMP assay for sGC activator: CASA assay). The following applies: read-out: IP; inflection point, 4P fit; CHO-K1/sGC cells.
Assay [2] addresses human recombinant sGC enzyme (Homo sapiens (Human), UniProt Q02108+Q02153). Nature of the assay: Size Exclusion Chromatography (SEC) competition binding assay using [3H] Ex-77B as the radioligand. The following applies: [3H] Ex-77B radioligand, 24 hours at 37° C.

Molecules are shown by their SMILES. pEC50, pKi: −log10 of the molar value.

A word on the pKi: it is −log10 of the Ki, conventionally taken in molar units. As for `CC1(C2CCC(CCC(=O)O)CC2)C(=O)Nc2nc(-c3nn(Cc4cccc(F)c4)c4cc(Cl)ccc34)nc(N)c21` (single isomer, unassigned) [263AA], the pEC50 in assay [1] was 6.96. Also, the pKi in assay [2] is 9.63.
For `CC1(c2nc(C3CC3C(=O)O)cs2)C(=O)Nc2nc(-c3nn(CCC(F)(F)C(F)(F)F)c4ncccc34)nc(N)c21` (stereo not shown) the same measures were 6.13 and 9.12.

Source of the values: US10030027B2, “Soluble guanylate cyclase stimulators” (MERCK SHARP & DOHME CORP., priority 2015, dated 2018).
